The test concerns biocontrol strain ST15. It is filed as cell-based, Bacillus altitudinis.

Consider 1 substance from patent US20230059898A1 (priority 2020, published 2023).
Note: key: +: not sensitive; −: sensitive.

On to Sodium bromate, for which the “chemical sensitivity of strain ST15” value is “+”.
